From patent publication US20150342954A1, “2-BENZYL, 3-(PYRIMIDIN-2-YL) SUBSTITUTED PYRAZOLES USEFUL AS SGC STIMULATORS” (IRONWOOD PHARMACEUTICALS, INC., priority 2011, published 2015)

Assays:
[1] = target: T1, Human soluble guanylate cyclase enzyme (hsGC) (Homo sapiens, UniProt Q02108+Q02153); assay: Purified human sGC enzyme synergy assay in the presence of 1 μM sodium nitroprusside (SNP); type: biochemical; conditions: compound at 30 μM, presence of 1 μM SNP; Table 5A
T1 construct: purchased Enzo Inc. ALX-201-177
T1 sequence (Q02153 1-619): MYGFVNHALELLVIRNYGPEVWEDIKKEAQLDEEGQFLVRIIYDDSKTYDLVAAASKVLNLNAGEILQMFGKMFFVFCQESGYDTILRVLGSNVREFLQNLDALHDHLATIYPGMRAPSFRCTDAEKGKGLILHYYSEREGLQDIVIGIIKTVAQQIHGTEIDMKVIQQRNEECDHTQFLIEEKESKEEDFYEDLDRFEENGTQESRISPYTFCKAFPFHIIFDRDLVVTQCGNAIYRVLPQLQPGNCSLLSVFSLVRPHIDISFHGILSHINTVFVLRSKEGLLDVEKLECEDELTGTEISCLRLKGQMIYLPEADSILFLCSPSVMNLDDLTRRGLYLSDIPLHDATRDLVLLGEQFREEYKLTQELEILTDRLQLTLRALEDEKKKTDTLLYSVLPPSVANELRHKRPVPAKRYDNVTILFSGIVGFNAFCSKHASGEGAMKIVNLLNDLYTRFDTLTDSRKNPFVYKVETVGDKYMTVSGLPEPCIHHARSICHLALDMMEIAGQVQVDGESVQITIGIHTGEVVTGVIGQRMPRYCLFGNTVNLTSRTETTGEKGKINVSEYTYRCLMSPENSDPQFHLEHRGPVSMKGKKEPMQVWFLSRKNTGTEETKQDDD
T1 sequence (Q02108 1-690): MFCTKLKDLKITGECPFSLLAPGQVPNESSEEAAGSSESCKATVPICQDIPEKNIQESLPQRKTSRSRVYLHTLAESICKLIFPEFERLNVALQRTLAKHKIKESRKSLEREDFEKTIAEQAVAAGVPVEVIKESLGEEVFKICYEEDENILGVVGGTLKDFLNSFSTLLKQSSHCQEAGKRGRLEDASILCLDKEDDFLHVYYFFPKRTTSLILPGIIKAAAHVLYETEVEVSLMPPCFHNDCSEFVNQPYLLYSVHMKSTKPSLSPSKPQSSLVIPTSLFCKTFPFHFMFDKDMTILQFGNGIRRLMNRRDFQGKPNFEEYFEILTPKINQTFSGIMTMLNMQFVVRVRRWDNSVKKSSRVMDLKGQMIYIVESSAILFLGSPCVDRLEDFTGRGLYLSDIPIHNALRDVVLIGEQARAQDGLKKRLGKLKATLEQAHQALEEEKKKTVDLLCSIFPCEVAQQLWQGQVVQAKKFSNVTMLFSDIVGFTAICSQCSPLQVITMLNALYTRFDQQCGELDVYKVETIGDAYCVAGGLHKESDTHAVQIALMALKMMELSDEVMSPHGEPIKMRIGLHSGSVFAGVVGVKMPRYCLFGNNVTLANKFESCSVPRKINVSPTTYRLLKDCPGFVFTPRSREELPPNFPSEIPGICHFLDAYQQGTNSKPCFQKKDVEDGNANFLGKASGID
Method: (§1) Human soluble guanylate cyclase enzyme (hsGC) obtained from Enzo Inc. (P/N: ALX-201-177) was used to evaluate the activity of test compounds. The assay reactions contained 0.1 M Tris (pH 8.0), 0.5 mg/mL BSA (pH 8.0), 2 mM DTT, 2 mM MgCl2, 300 μM GTP, 1 mM 3-isobutyl-1-methylxanthine (IBMX) and 5 ng human soluble guanylate cyclase enzyme. Test compounds in DMSO were then added (2 μL, 10 or 30 μM final concentration) and incubated (200 μL, 96-well plate format) at 37° C. for 30 minutes. The controls were carried out using 2 μL DMSO. After the 30 minute incubation, the reaction was stopped with the addition of 200 μl of cold methanol. The plate was then centrifuged at 3,200 rpm for 10 minutes at room temperature. Supernatants (200 μL) were collected and transferred to a new 96 well plate for analysis.
An 8 point cGMP (Sigma-Aldrich P/N: G6129) standard curve was prepared in assay buffer ranging from 0.156-20 μM. Samples for the cGMP standard curve were then diluted with an equal volume of methanol resulting in final cGMP concentrations of 0.078-10 μM.
The cGMP standard curve was generated using GraphPad Prism Software.
Calculations: Specific Activity was determined by the amount of cGMP formed (nmoles) per mg of sGC per min. Enzyme “fold-change” was calculated by dividing Specific Activity for test compounds by Specific Activity of DMSO controls. […]

[2] = target: T1, Human soluble guanylate cyclase enzyme (hsGC); assay: Purified human sGC enzyme activity assay (without SNP); type: biochemical; conditions: compound at 30 μM, absence of SNP; fold over DMSO control; Table 5A
Method: Biological Activity Measurements by the Purified Human sGC Enzyme Activity Assay
as §1
An 8 point cGMP (Sigma-Aldrich P/N: G6129) standard curve was prepared in assay buffer ranging from 0.156-20 μM. Samples for the cGMP standard curve were then diluted with an equal volume of methanol resulting in final cGMP concentrations of 0.078-10 μM. […]
Calculations: Specific Activity was determined by the amount of cGMP formed (nmoles) per mg of sGC per min. Enzyme “fold-change” was calculated by dividing Specific Activity for test compounds by Specific Activity of DMSO controls.

SMILES: CN(C)c1nc(-c2cc(-c3ccon3)n(Cc3ccccc3F)n2)ncc1S(=O)(=O)O [Compound 51]
- Enzyme Activity (increase at 30 μM with SNP) [1]: A (no increase to <2 fold increase)
- Enzyme Activity (increase at 30 μM without SNP) [2]: A (no increase to <2 fold increase)
